Data on 24 compounds can be found in PubChem BioAssay AID2517 (National Center for Advancing Translational Sciences (NCATS), 2010).

By UniProt entry, the sequences of proteins in these tests, tags left out.
UniProt P27695, whole entry: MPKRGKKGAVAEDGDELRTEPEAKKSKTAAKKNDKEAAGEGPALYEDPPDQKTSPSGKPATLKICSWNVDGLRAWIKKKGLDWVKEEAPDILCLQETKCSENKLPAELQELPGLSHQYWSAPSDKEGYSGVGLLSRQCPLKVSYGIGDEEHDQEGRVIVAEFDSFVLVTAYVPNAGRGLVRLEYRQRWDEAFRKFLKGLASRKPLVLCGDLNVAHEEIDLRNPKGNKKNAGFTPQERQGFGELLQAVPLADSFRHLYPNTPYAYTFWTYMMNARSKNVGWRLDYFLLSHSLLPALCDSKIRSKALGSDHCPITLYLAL

SMILES strings stand for the structures. Only a part is listed here, and it is no random draw. Some results for these compounds are left out of this collection, so the calls shown say nothing about other tests. Results filed as inconclusive are left out. Calls of active or inactive are those of the source. The call rests on the fitted dose curve; in most records, active means well fitted inhibition curve with a large enough effect; inconclusive means small, poorly fitted or top-dose-only effect; inactive means no such curve, though single readings can be large or run the other way.

For the test, the target named is DNA repair nuclease/redox regulator APEX1 (Homo sapiens) (UniProt P27695). Kind of test: qHTS Assay for Inhibitors of the Human Apurinic/apyrimidinic Endonuclease 1 (APE1).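 Further: plate controls were vehicle for no effect and reference inhibitor for full effect; nearly all actives have a fitted effect of over 55% in size.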 Conditions: recombinant APE1, TAMRA/BHQ-2 abasic DNA cleavage fluorescence; at 65.8 µM (top of the series). In general terms: qHTS replaces the single test concentration by a dilution series.
Turning to `O=C(NCC1(N2CCCCC2)CCCCC1)c1cc([N+](=O)[O-])ccc1Cl`, the activity change, negative = inhibition is inactive: 3.46%.

Regarding `CN1[C@@H]2CC[C@H]1CC(OC(=O)C(O)(c1ccccc1)c1ccccc1)C2` (some centres undefined), the activity change, negative = inhibition was inactive: 47.3%.

On to `CC(C)N1C(=O)CC2(CCN(CCOC(=O)C(O)(c3ccccc3)c3ccccc3)CC2)C1=O`, for which the activity change, negative = inhibition is inactive: 2.66%.

In the case of `COc1cc(SC)ccc1C(=O)NCC1(N(C)C)CCCCC1`, the activity change, negative = inhibition was inactive: 7.27%.

With `CCN(CC)CC(C)C(C)OC(=O)C(O)(c1ccccc1)c1ccccc1` (centres undefined), the activity change, negative = inhibition was inactive: 23.9%.

`Cc1ccc(C(=O)NCC2(N3CCCCC3)CCCCC2)cc1`: the activity change, negative = inhibition was inactive: 13.9%.

`CN(C)C1CCCC1OC(=O)C(O)(c1ccccc1)c1ccccc1` (centres undefined): the activity change, negative = inhibition is inactive: 0.685%.

For the compound `CN(C)c1ccc(C(=O)NCC2(N(C)C)CCCCC2)cc1`, the activity change, negative = inhibition was inactive: 8.38%.

In the case of `Cc1ccccc1C(=O)NCC1(N2CCCCC2)CCCCC1`, the activity change, negative = inhibition is inactive: 4.19%.

In the case of `O=C(NCC1(N2CCCCC2)CCCCC1)c1cc(F)c(F)cc1Cl`, the activity change, negative = inhibition was inactive: 4.02%.

Regarding `C=CCN1CCN(CCOC(=O)C(O)(c2ccccc2)c2ccccc2)CC1`, the activity change, negative = inhibition was inactive: 0.546%.

For the compound `O=C(NCC1(N2CCCCC2)CCCCC1)c1cccc(Br)c1`, the activity change, negative = inhibition is inactive: -0.567%.

Take `Cc1cc(C(=O)NCC2(N3CCCCC3)CCCCC2)ccc1[N+](=O)[O-]`: the activity change, negative = inhibition was inactive: 57.3%.

As to `CCN1CCCC(OC(=O)C2(O)c3ccccc3C=Cc3ccccc32)C1` (centres undefined), the activity change, negative = inhibition is inactive: -0.0195%.

As for `COc1ccc(C(=O)NCC2(N(C)C)CCCCC2)cc1`, the activity change, negative = inhibition was inactive: -3.38%.

In the case of `CN(C)C1(CNC(=O)c2ccc(Br)cc2)CCCCC1`, the activity change, negative = inhibition is inactive: 63%.

As for `COc1cc(C(=O)NCC2(N(C)C)CCCCC2)c([N+](=O)[O-])cc1OC`, the activity change, negative = inhibition was inactive: 4.65%.

For `COc1ccc(Cl)cc1C(=O)NCC1(N(C)C)CCCCC1`, the activity change, negative = inhibition was inactive: -2.35%.

Turning to `COc1cccc(C(=O)NCC2(N3CCCCC3)CCCCC2)c1`, the activity change, negative = inhibition was inactive: 0.617%.

For the compound `O=C(NCC1(N2CCCCC2)CCCCC1)c1cccc(Cl)c1`, the activity change, negative = inhibition is inactive: -9.31%.

Turning to `O=C(OC1CN2CCC1CC2)C(CO)(c1ccccc1)c1ccccc1` (centres undefined), the activity change, negative = inhibition is inactive: -1.2%.

As for `COc1ccc(Br)c(C(=O)NCC2(N3CCCCC3)CCCCC2)c1`, the activity change, negative = inhibition was inactive: 6.15%.

For `CN(C)c1cccc(C(=O)NCC2(N(C)C)CCCCC2)c1`, the activity change, negative = inhibition was inactive: -6.52%.

For the compound `CC(C)Oc1ccc(C(=O)NCC2(N(C)C)CCCCC2)cc1`, the activity change, negative = inhibition is inactive: 4.87%.
